Paper PMC6627553, “Cardiac Rhythm and Molecular Docking Studies of Ion Channel Ligands with Cardiotoxicity in Zebrafish” (Cells, 2019)

Tested on: zebrafish embryos aged 72 hpf
Details: in vivo

Substance: Niguldipine-HCl [compound 1358]
- Time interval and heart rates (bpm) versus normal boundaries: did not exceed the normal boundaries
